Results taken from patent US7119094B1, “Substituted polycyclic aryl and heteroarpyl pyrazinones useful for selective inhibition of the coagulation cascade” (Warner-Lambert Company, priority 2000, dated 2006).

Protein sequences, listed by entry. Tags and fused reporters are not part of them. Residues count along the entry.
UniProt P08709, 61-212 limits assumed: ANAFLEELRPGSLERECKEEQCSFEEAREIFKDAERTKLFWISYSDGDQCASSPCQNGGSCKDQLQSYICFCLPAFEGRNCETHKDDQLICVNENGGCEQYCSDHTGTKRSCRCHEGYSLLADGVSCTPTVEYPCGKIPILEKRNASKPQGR
UniProt P08709, 213-466 limits assumed: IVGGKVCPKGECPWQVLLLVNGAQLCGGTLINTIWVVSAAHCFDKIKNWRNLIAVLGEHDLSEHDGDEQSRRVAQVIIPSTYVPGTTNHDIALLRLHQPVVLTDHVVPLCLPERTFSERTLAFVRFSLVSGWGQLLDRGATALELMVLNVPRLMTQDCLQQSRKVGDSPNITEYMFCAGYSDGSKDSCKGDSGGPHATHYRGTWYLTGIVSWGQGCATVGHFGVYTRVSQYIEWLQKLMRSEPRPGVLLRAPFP
UniProt P00761, 9-231: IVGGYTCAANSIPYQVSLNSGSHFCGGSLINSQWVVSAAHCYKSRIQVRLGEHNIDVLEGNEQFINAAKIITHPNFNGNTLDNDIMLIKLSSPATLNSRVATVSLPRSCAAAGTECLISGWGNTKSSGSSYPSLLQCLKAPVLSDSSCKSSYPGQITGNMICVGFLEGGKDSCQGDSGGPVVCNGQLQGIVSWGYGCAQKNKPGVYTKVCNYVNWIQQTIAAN

What was measured:
[1] = target: recombinant soluble tissue factor and recombinant human factor VIIa (TF-VIIa) (Homo sapiens, UniProt P08709); assay: TF-VIIa Assay
[2] = target: Trypsin (type 1× from porcine pancreas) (Sus scrofa, UniProt P00761); assay: Trypsin Assay

SMILES	% Inhibition TF-VIIa (100 νM) [1]	% Inhibition Trpysin II (100 νM) [2]
O=C(Cn1c(-c2ccc(-c3ccccc3)cc2)c(Cl)nc(NCCc2cccc(Cl)c2)c1=O)NCCc1ccncc1 [Example E-0051]	0%	0%
O=C(Cn1c(-c2ccc(-c3ccccc3)cc2)c(Cl)nc(NCCc2ccccc2)c1=O)NCCc1cccnc1 [Example E-0113]	14%	11%
